This experiment deals with T1, hNedd4L-WW3* domain (third WW domain of human Nedd4-like protein, GST tag removed) (human, UniProt Q96PU5 496-539).
T1 construct: Nedd4-like protein (Nedd4L), human, cDNA clone KIAA0439, third WW domain (WW3*); Thrombin cleavage may leave vector residues at the N-terminus (surmised); source: E. coli BL21(DE3), purified (Glutathione Sepharose 4B, thrombin cleavage on the resin); 15N-labelled in M9 medium for NMR; not shown: GST, N-terminal, cleaved
Put plainly: ITC; peptide titrated into the cleaved WW domain (40 to 150 uM) in the cell; 10 mM sodium phosphate, pH 7.4, 25 °C; MicroCal VP-ITC; bimolecular interaction model; three runs (further runs with 100 mM and 500 mM NaCl told in words only). Conditions: both partners purified.

Protein sequences, listed by entry. Tags and fused reporters are not part of them. Residues count along the entry.
UniProt Q96PU5, 496-539: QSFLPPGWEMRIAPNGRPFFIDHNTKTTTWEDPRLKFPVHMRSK

B1: pU24-6A peptide (15-mer, N-terminus of U24 from HHV-6A phosphorylated at Thr6) (peptide)
peptide: MDPPRTPPPSYSEVL
modifications: phosphoryl threonine at Thr6
notes: U24 protein of Human Herpes Virus type 6A (HHV-6A), 15-mer of the N-terminus with phospho-threonine at Thr6; source: purified peptide
Molecule B1 showed a Kd of 760 nM.
